## Apparent affinities of Ab-14 variants for a coronavirus HR2 peptide

The measurements come from Li et al. 2023 (doi:10.1038/s41467-023-39022-2) through the FLAb antibody collection.

Target peptide (SARS-CoV-2 spike, HR2 region): PDVDLGDISGINAS

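The parent was found by panning a naive human phage display library on the peptide. This is the validation round: designs drawn from the data on random variants, tested in the same kind of assay. Group labels follow the data file (Ctrl: baseline library sampled from a position-specific scoring matrix, with some repeated check sequences; En: ensemble of fine-tuned language models; GP: Gaussian process model; HC: hill climbing; Gen: genetic algorithm; Gibbs: Gibbs sampling; a sequence that several methods proposed may carry one label only). The assay is AlphaSeq: two haploid yeast populations carry antibody and antigen on their surface. The frequency of each diploid, read from paired DNA barcodes, reflects how well the two displayed proteins bind. Scores were corrected for input abundance and mapped to Kd with protein pairs of known affinity run in the same pool. Mating was done six times.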

Each scFv is VH, a (GGGGS)3 linker, VL, as in the parent Ab-14, and differs from it in the CDRs of the light chain only.
VH: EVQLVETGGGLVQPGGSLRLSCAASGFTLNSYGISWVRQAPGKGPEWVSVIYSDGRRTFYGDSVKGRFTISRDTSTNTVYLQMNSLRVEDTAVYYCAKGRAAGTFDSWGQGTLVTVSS
VL: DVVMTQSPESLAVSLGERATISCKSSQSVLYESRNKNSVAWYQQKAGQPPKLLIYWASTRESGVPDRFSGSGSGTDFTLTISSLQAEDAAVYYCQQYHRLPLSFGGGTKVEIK

The parent's light chain CDRs are KSSQSVLYESRNKNSVA, WASTRES, QQYHRLPLS; each variant's own CDRs replace them letter for letter. Scale: log10 of Kd in nM, estimated from mating counts; low values are strong binders. The mean shown is taken over the replicates in which the pair was detected. An entry "nd" has no value in the source: the pair was not observed among the diploids in any replicate. This suggests poor binding but is not conclusive.

| log10 Kd (nM), mean | seen in | control signals | CDR-L1 | CDR-L2 | CDR-L3 | group |
|---|---|---|---|---|---|---|
| 0.78 | 6 of 6 | 2 of 18 | TIDLYTSYGNGENRAIA | DVSIKDY | QQYARLPLL | En_Gibbs |
| -0.09 | 6 of 6 | 1 of 18 | KLSQSVMGWMRNKNSVA | NASTRES | QQYHRLPLS | GP_Gibbs |
| 1.33 | 6 of 6 | 1 of 18 | QVFAFNEHLKDQQQAMA | NATMRDQ | QQYERLPLS | En_Gibbs |
| 0.22 | 6 of 6 | 2 of 18 | TISQSAQMEHHNKNSVA | DLNVRGS | QQYDRLPLS | En_HC |
| 0.57 | 6 of 6 | 0 of 18 | KSSQSVLYESRNKNSVA | AASTREV | QQYHRLPLS | Ctrl |
| 0.87 | 6 of 6 | 1 of 18 | KLSQVTHSEHKIKNSIA | EMVTREK | QQYDRLPLS | En_HC |
| 1.58 | 6 of 6 | 0 of 18 | KSSQSVYYESENKNSVA | WASTRES | QQYHRLPLS | Ctrl |
| 1.69 | 6 of 6 | 1 of 18 | KVSEFMRGLMQRKDSIA | DNETRNN | QQYDRLPLS | En_Gen |
| 1.60 | 6 of 6 | 2 of 18 | MISQLYNMGSFAINSVA | QASLREE | QQYDRLPLM | En_Gen |
| 0.06 | 6 of 6 | 3 of 18 | KSSLSYLYESRNKNSVA | AASTRES | QQYHRLPLS | GP_HC |
| 0.09 | 6 of 6 | 2 of 18 | HISQMVMYGSCNKNNVA | QVSLREE | QQYHRLPLS | En_HC |
| 1.01 | 6 of 6 | 2 of 18 | KSSQSELYESTNKNSVA | WASTRES | QQYHRLPLS | Ctrl |
| -0.15 | 6 of 6 | 0 of 18 | KLSQSNDYESRNKNSVA | NASTRES | QQYHRLPLS | GP_Gen |
| 0.87 | 6 of 6 | 2 of 18 | KLSQSVLFFGHAINSVA | EMETREN | QQYDRLPLS | En_HC |
| -0.11 | 6 of 6 | 1 of 18 | KWQWGWLYESRNKNSVA | EGSTRES | QQYHRLPLS | GP_Gibbs |
| 1.67 | 6 of 6 | 1 of 18 | KGHQSALYESRNKNSVA | MASTRES | QQYHRLPLS | Ctrl |
| 0.15 | 6 of 6 | 1 of 18 | KMSQSVLMEMRNANSVA | NASTREE | QQYHRLPLS | GP_Gibbs |
| 0.18 | 6 of 6 | 1 of 18 | KSSQSVLYESRNFNSVA | NASTRES | QQYHRLPLS | GP_Gen |
| 2.41 | 4 of 6 | 0 of 18 | KVSSFMRGLMMRKDSIA | DNETRNS | QQYDRLPLS | En_Gen |
| 0.39 | 6 of 6 | 0 of 18 | QLQIEPNGYMGMRNNVA | DGVMVRM | QQYARLPLM | En_Gibbs |
| 2.57 | 6 of 6 | 0 of 18 | MIYGAERELGLARNSIA | DNVTRYN | QQYERLPLS | En_Gen |
| 0.61 | 6 of 6 | 0 of 18 | TLSDLMYMESRNMNSVA | DLVKRES | QQYHRLPLS | En_HC |
| 0.33 | 6 of 6 | 0 of 18 | KLQFAELQESRNKNSVA | SASTRES | QQYHRLPLS | GP_Gibbs |
| -0.29 | 6 of 6 | 3 of 18 | KFEQSDLYESRNKNSVA | NASTRES | QQYHRLPLS | GP_Gen |
| 1.50 | 5 of 6 | 0 of 18 | KCSDSVLYESRNKNSVA | HASTRES | QQYFRLCLS | Ctrl |
| 0.31 | 6 of 6 | 1 of 18 | KMEQGTLYESRNKGSVA | GASVRES | QQYHRLPLS | GP_HC |
| 0.43 | 6 of 6 | 2 of 18 | KLPNSQLYESRNKNQVA | SASTREM | QQYHRLPLS | GP_Gibbs |
| 0.09 | 6 of 6 | 1 of 18 | KYSQSQLYEDRMVNSVA | NASQRES | QQYHRLPLS | GP_Gibbs |
| 1.63 | 6 of 6 | 0 of 18 | MISQLYNMGQFAINSVA | QASERYN | QQYDRLPLI | En_Gen |
| 0.11 | 6 of 6 | 1 of 18 | KLMQSELYESRNKNSVA | HASLRED | QQYHRLPLS | GP_HC |
| -0.32 | 6 of 6 | 0 of 18 | HSSPSVLYESRNKNSVA | EASTRES | QQYHRLPLS | GP_HC |
| 0.72 | 6 of 6 | 1 of 18 | KFSQSVLHESVNKNSVA | WASTRES | QQYHRLPLS | Ctrl |
| nd | 0 of 6 | 0 of 18 | KSRQSVLYESNNKNSVA | WASTRES | QLYHMLELS | Ctrl |
| 0.55 | 6 of 6 | 2 of 18 | HISESMYFQSRNKNNIA | EMSTREY | QHYHRLPLS | En_HC |
| 0.23 | 6 of 6 | 2 of 18 | KSSWSVEYEDRASNSVA | NASQREW | QQYHRLPLS | GP_Gibbs |
| -0.12 | 6 of 6 | 0 of 18 | MISPSVMYGYRNLNSVA | QTQTREN | QQYNRLPLS | En_HC |
| nd | 0 of 6 | 0 of 18 | IVSQLMLWGLHAKNSIA | EAVMRLN | QQYDRLPLI | En_Gen |
| -0.02 | 6 of 6 | 1 of 18 | KLSQSDLYEMRNKNSVA | EAQTREV | QQYHRLPLS | GP_Gibbs |
| -0.36 | 6 of 6 | 1 of 18 | KLSMSEWMESRNKNSVA | SANTREE | QQYHRLPLS | GP_Gibbs |
| 2.59 | 4 of 6 | 1 of 18 | KLVNSTLYESRQKNSVA | MASTRES | QQYHRLPLS | GP_HC |
| -0.03 | 6 of 6 | 2 of 18 | KLMQSVDYESRNKNSVA | NASTRES | QQYHRLPLS | GP_Gen |
| 0.17 | 6 of 6 | 0 of 18 | KLSMITGHMSMIKNNVA | EMETREN | QQYNRLPLA | En_Gen |
| 0.95 | 6 of 6 | 1 of 18 | FFGYDIFQENMKAKSIA | EANMRVY | QQYAILPLT | En_Gibbs |
| 0.39 | 6 of 6 | 0 of 18 | HVSEPKYAVTNHRQNVA | SAAEREV | QQYFRLPFS | En_Gibbs |
| 0.13 | 6 of 6 | 0 of 18 | KLSQLVLMESRNKNSVA | NASTRES | QQYHRLPLS | GP_Gen |
| 0.93 | 6 of 6 | 2 of 18 | KLQQSYLYESRNKNSVA | NASTRMS | QQYHRLPLS | GP_Gen |
| 1.34 | 6 of 6 | 1 of 18 | ALGTSTLEESRNKNSVA | EMSLRES | QSYNRLPLS | En_HC |
| 0.76 | 6 of 6 | 1 of 18 | KLSFSCLYESRMKNSVA | NASTRYS | QQYHRLPLS | GP_Gibbs |
| -0.65 | 6 of 6 | 0 of 18 | KLSQQDLYESRNKNSVA | NASTRES | QQYHRLPLS | GP_Gen |
| 0.92 | 6 of 6 | 0 of 18 | KQSQSVLYESRNKNSVA | DASTRES | QDYHRLPLD | GP_HC |
| 0.41 | 6 of 6 | 0 of 18 | HIGTVLEGVNVKGRSVA | QMSTREE | QQYDRLPLS | En_Gen |
| 1.47 | 6 of 6 | 0 of 18 | KSSQSVLYESRNKNSVA | NASTREF | QQYHRLPLS | Ctrl |
| 0.75 | 6 of 6 | 2 of 18 | SLFFHDDQKQEESNNIA | HASLRAV | QQYMHLPLV | En_Gibbs |
| 1.71 | 6 of 6 | 0 of 18 | KLQQSWEYESRNSNNVA | QASTRCS | QQYHRLPLS | GP_Gibbs |
| -0.34 | 6 of 6 | 0 of 18 | KLSQSMLYESRNKNSVA | DASTRCS | QQYHRLPLS | GP_Gen |
| 1.95 | 2 of 6 | 0 of 18 | KQSQSVMQEERNKNSVA | AASDREV | QQYHRLPLS | GP_Gibbs |
| -0.37 | 6 of 6 | 1 of 18 | KQSVSVLQESRNKNSVA | DASTRES | QQYHRLPLS | GP_HC |
| nd | 0 of 6 | 0 of 18 | KLSQSVRMEEFVKDNVA | ENSTREA | QDYHRLPLS | En_HC |
| 0.61 | 6 of 6 | 0 of 18 | KLLQVTENMSLNRNSVA | HMSTRED | QQYNRLPLS | En_HC |
| nd | 0 of 6 | 0 of 18 | KLGGESYNSTYAMDAVA | DQNTTYE | QHYSRLPLT | En_Gibbs |
| -0.20 | 6 of 6 | 0 of 18 | KVSQSVLYESRNKNSVA | NASTRES | QQYHRLPLV | GP_Gen |
| -0.06 | 6 of 6 | 1 of 18 | KLSQSWLYESRNKNSVA | NASTREV | QQYHRLPLS | GP_Gen |
| -0.55 | 6 of 6 | 0 of 18 | KLSQSGLYESRNKNSVA | NASTREV | QQYHRLPLS | GP_Gen |
| 0.87 | 6 of 6 | 0 of 18 | KLSEYAHFESRKKNSVA | ENSTRES | QQYDHLPLS | En_HC |
| -0.41 | 6 of 6 | 1 of 18 | RVSQSVLYESRNKNSVA | DASTRES | QQYHRLPLS | GP_HC |

The last 3 entries again:

{"CDR-L1": "KLSQSGLYESRNKNSVA", "CDR-L2": "NASTREV", "CDR-L3": "QQYHRLPLS", "group": "GP_Gen", "log10 Kd (nM), mean": "-0.55", "seen in": "6 of 6", "control signals": "0 of 18"}
{"CDR-L1": "KLSEYAHFESRKKNSVA", "CDR-L2": "ENSTRES", "CDR-L3": "QQYDHLPLS", "group": "En_HC", "log10 Kd (nM), mean": "0.87", "seen in": "6 of 6", "control signals": "0 of 18"}
{"CDR-L1": "RVSQSVLYESRNKNSVA", "CDR-L2": "DASTRES", "CDR-L3": "QQYHRLPLS", "group": "GP_HC", "log10 Kd (nM), mean": "-0.41", "seen in": "6 of 6", "control signals": "1 of 18"}

The authors averaged sequences with at least three values out of six and counted those with two or fewer as poor binders. The range of this assay differs from that of the first round, and the authors advise against merging the two. As a blank, each scFv also met three strains without target: over all light chain designs, 4% of these pairings were detected, typically at 2.64 and seldom below 1.59. For each scFv, signals with the empty controls are counted beside the result. Of ten entries with the parent sequence, four were seen in most replicates (averages 0.34 to 2.37), three in one and three in none, so single entries are noisy.